# ChEMBL document CHEMBL1133503 (J Med Chem, 2000)
# Columns and labels:
# [1] = Concentration required to reduce cell survival to 10% of controls using V-79 cells in the clonogenic assay, in anaerobic conditions (hypoxic conditions)
# Rattus norvegicus = species: Rattus norvegicus; test: Reduction potential (SCE) determined by differential pulse polarography of the sulfoxides […]
# [2] = Concentration required to reduce cell survival to 10% of controls using V-79 cells in the clonogenic assay, in aerobic conditions
smiles,measurement,setting,value
C[S+]([O-])c1ccc(N(CCCl)CCCl)cc1 (stereo not drawn),IC90,[1],340 µM
same,E,Rattus norvegicus,2.6 -V
same,IC90,[2],944 µM
